# Source: PMC8998827, “Ligandability Assessment of Human Glutathione Transferase M1-1 Using Pesticides as Chemical Probes” (International Journal of Molecular Sciences, 2022)
# Target: T1, hGSTM1-1 (Homo sapiens, UniProt P09488)
# T1 sequence (P09488 1-218): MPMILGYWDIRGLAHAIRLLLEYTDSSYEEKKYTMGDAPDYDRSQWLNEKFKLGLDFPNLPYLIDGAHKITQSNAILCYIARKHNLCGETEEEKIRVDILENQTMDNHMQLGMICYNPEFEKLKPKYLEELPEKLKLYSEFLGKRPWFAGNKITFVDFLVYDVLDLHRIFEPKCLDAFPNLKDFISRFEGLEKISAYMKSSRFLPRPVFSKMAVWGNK
# Conditions: pH 7.4, 25 °C
# Excerpt: Furthermore, the catalytic activity of hGSTM1-1 cannot be regained by extensive dialysis or gel filtration on Sephadex G-25. […] The Kapp calculated by inactivation experiments is in good agreement to that determined by kinetic inhibition analysis.
# The rate of inactivation was followed by periodically removing samples for assays of enzymatic activity.
smiles,measurement,setting,value
"NC(CCC(=O)NC(CSCCS(=O)(=O)F)C(=O)NCC(=O)O)C(=O)O (centres unmarked) [GS-ESF, S-glutathionyl ethylenesulfonyl fluoride]","k3, maximal rate of inactivation",GS-ESF 0.025–0.2 mM,0.052 ± 0.02 min⁻¹
same,Effect on catalytic activity on incubation,activity not regained by dialysis or gel filtration,time-dependent loss in catalytic activity
